Each structure is given as a SMILES string.

This is an account of results in ChEMBL document CHEMBL5726108, “Pyrrolo[2,3-d]pyrimidinyl, pyrrolo[2,3-b]pyrazinyl and pyrrolo[2,3-d]pyridinyl acrylamides” (2017).

In this assay the target is T1, Tyrosine-protein kinase JAK3 (Homo sapiens, UniProt P52333).
T1 sequence (P52333 whole entry): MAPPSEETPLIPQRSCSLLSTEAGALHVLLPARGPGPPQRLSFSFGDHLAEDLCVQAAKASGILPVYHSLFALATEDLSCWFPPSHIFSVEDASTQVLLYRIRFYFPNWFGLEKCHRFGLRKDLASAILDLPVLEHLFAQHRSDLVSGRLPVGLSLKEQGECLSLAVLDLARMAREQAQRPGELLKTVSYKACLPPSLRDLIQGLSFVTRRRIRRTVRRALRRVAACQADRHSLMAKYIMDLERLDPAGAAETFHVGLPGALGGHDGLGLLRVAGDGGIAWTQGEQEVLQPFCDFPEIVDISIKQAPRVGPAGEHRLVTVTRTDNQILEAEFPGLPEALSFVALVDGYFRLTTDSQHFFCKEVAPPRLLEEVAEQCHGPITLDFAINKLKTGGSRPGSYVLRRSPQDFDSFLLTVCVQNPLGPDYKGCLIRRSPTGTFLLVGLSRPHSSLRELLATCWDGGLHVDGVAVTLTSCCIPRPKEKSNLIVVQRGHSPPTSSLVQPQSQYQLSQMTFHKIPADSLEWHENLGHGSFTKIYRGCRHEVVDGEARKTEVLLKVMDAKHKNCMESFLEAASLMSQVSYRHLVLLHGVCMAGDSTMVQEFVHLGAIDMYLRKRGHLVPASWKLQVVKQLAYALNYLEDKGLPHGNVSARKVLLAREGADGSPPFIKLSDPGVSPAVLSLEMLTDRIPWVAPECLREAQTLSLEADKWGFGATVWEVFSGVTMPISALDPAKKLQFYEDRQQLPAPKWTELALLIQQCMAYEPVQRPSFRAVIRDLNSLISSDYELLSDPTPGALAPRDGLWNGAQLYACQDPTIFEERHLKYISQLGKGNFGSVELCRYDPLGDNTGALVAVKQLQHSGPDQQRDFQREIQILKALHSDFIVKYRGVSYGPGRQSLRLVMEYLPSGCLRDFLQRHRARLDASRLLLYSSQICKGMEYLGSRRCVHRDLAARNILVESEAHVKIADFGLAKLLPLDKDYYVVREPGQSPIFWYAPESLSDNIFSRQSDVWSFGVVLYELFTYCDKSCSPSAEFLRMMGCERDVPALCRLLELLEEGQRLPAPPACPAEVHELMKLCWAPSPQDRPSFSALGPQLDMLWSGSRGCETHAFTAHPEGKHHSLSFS
The assay is described as follows: JAK Caliper Enzyme Assay: Test article was solubilized in dimethyl sulfoxide (DMSO) to a stock concentration of 30 mM. An 11-point half log dilution series was created in DMSO with a top concentration of 600 μM. […] The compound plates were diluted 1 to 60 resulting in a top final assay compound concentration of 10 μM and a 2% DMSO concentration.Test article and assay controls were added to a 384-well plate. Reaction mixtures contained 20 mM HEPES, pH 7.4, 10 mM magnesium chloride, 0.01% bovine serum albumin (BSA), 0.0005% Tween 20, 1 mM ATP and 1 μM peptide substrate. […] The assays were initiated by the addition 1 nM JAK3 enzyme and were incubated at room temperature 75 minutes for JAK3. Enzyme concentrations and incubation times were optimized for each new enzyme preps and were modified slightly over time to ensure 20%-30% phosphorylation. The assays were stopped with a final concentration of 10 mM EDTA, 0.1% Coating Reagent and 100 mM HEPES, pH=7.4. The assay plates were placed on a Caliper Life Science Lab Chip 3000 (LC3000) instrument, and each well was sampled using appropriate separation conditions to measure the unphosphorylated and phosphorylated peptide.

By IC50 is commonly meant the midpoint of a concentration-inhibition curve. Regarding `C=CC(=O)N1CCC[C@@](C)(Nc2ncnc3[nH]ccc23)C1`, the IC50 was above 10 µM.
